Source: patent US8563723B2, “Arylsulfonyl pyrazoline carboxamidine derivatives as 5-HT6 antagonists” (Abbott Healthcare Products, B.V., priority 2008, dated 2013)

Protein sequences, listed by entry. Tags and fused reporters are not part of them.
UniProt P50406, whole entry: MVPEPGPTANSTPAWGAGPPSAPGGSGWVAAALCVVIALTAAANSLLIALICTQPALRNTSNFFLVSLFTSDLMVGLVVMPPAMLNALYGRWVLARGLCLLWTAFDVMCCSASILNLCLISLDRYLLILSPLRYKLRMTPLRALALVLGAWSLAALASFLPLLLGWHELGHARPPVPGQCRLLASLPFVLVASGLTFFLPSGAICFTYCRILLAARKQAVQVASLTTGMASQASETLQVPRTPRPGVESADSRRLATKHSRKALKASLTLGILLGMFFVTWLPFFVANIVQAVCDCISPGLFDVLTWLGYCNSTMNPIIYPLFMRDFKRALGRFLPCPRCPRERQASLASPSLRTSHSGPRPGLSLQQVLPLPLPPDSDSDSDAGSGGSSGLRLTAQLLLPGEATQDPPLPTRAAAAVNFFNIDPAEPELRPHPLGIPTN

Legend:
[1] = biological target: T1, 5-HT6 receptor (Homo sapiens, UniProt P50406); assay: In vitro affinity for human 5-HT6 receptors ([3H]-LSD binding, CHO cell membranes); parameters: host or cells: CHO/Gα16/mtAEQ/h5HT6-A1 cells; details: 5-HT6 pKi
[2] = biological target: T1, 5-HT6 receptor; assay: In vitro functional activity ((ant)agonism) on human 5-HT6 receptors, CHO-human-5HT6-Aequorin assay; assay type: cell-based; parameters: host or cells: CHO AequoScreen recombinant cell line (expresses mitochondrial targeted apo-Aequorin); details: antagonism of 10^-8 M α-methylserotonin induced luminescence; comparison table Example 6; read-out: 5-HT6 pA2 (converted)
Excerpt: Human-5-HT6-Aequorin cells express mitochondrial targeted apo-Aequorin. Cells have to be loaded with coelanterazine, in order to reconstitute active Aequorin. After binding of agonists to the human 5-HT6 receptor the intracellular calcium concentration increases and binding of calcium to the apo-Aequorin/coelenterazine complex leads to an oxidation reaction of coelenterazine, which results in the production of apo-Aequorin, coelenteramide, CO2 and light (λmax 469 nm). This luminescent response is dependent on the agonist concentration. Luminescence is measured using the MicroBeta Jet (Perkin Elmer). Agonistic effects of compounds are expressed as pEC50. […] Compounds were tested at a 5 log concentration range, and 3 independent experiments were performed in duplicate.

CCN/C(=N\S(=O)(=O)c1ccccc1)N1CC(C)(C)C=N1 [Compound 175 from WO 2008/034863, reference compound]
Ki [1]: 63.1 nM | Kb [2]: 126 nM
